Earlier results as cited in patent publication US7414031B2, “5-nitro-nucleoside compounds for treating viral infections” (priority 2004, dated 2008).

Conditions: in vivo; cited from earlier work

NC(=O)c1ncn([C@@H]2O[C@H](CO)[C@@H](O)[C@H]2O)n1 [Ribavirin, 1-β-D-ribofuranosyl-1H-1,2,-4-triazole-3-carboxamide]
teratogenicity / embryotoxicity: teratogenic and embryotoxic
